Target: T1, NK1 receptor (Meriones unguiculatus, UniProt Q5DUB1)
T1 construct: centrally NK1 receptor mediated foot-tapping response was examined in the gerbil; from tissue; host or cells: whole animal (gerbil), central NK1 receptors, i.c.v. agonist
Test: [Sar9,Met(O2)11]substance P-induced hind foot tapping in the gerbil
Type: in vivo
Settings: i.c.v., 1-100 nmol/animal
Procedure: FIG. 3. […] The duration of foot tapping (sec) was recorded for 5 minutes immediately following recovery of the animals righting reflex.
Gerbils were anaesthetized with isoflurane, and an incision was made to expose the skull. […] Animals were placed individually into observation boxes, and duration of hind foot tapping was recorded for 5 minutes immediately following recovery of the animals' righting reflex.

Protein sequences, listed by entry. Tags and fused reporters are not part of them.
UniProt Q5DUB1, whole entry: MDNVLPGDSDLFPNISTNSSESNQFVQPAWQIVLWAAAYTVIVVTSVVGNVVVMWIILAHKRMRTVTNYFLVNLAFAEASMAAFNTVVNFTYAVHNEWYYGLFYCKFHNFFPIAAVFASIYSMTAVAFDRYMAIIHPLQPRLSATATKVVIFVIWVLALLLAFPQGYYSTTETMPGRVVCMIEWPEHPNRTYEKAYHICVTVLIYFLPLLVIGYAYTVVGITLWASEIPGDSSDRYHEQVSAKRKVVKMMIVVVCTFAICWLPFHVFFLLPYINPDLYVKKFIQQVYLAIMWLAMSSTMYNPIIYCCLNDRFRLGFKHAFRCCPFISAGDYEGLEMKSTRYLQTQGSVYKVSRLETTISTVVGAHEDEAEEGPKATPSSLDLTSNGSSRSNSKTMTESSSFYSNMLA

Which “MED for increase of foot tapping” value does the source give for [Sar^9, Met(O2)^11 ]substance P here?
Its value is 10 nmol.

Reference: patent US5998435A, “Use of a tachykinin antagonist for the manufacture of a medicament for the treatment of emesis” (priority 1998, dated 1999)
